# Measured values published in US8981094B2, “Piperidine/piperazine derivatives” (Janssen Pharmaceutica N.V., priority 2007, dated 2015).
# Protein sequences, listed by entry. Tags and fused reporters are not part of them.
# UniProt O75907, whole entry: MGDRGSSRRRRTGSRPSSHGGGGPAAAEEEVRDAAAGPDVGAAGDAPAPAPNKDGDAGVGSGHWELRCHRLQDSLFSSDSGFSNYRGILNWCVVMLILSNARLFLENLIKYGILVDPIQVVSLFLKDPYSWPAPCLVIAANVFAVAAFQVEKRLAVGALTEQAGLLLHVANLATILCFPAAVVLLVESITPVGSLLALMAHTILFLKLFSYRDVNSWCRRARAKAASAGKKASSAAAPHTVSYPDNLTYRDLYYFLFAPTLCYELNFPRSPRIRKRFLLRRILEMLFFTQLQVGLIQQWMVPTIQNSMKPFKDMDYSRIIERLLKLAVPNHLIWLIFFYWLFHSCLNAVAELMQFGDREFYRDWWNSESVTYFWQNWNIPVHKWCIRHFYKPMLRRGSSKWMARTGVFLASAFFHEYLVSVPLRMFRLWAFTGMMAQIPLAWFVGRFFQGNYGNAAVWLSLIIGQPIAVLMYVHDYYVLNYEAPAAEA
# Molecular target: human DGAT1 (Homo sapiens, UniProt O75907)
# Assay: Inhibition of DGAT1 activity, FlashPlate assay with DGAT1 membrane preparations and substrate micelles
# Conditions: pIC50 = -logIC50, IC50 values expressed in M
# Description: A) Measurement of Inhibition of DGAT1 Activity by the Present Compounds
# The inhibiting activity of the present compounds on DGAT1 activity was screened in a single well procedure assay using DGAT1 comprising membrane preparations and DGAT1 substrate comprising micelles and determining formed radio-active triacylglycerol coming in close proximity of a flashplate surface by radio luminescence.
# Said assay is described in full detail in WO2006/067071, the content of which is incorporated herein by reference.
# By DGAT1 activity is meant the transfer of coenzyme A activated fatty acids to the 3-position of 1,2-diacylglycerols, thus forming a triglyceride molecule, by enzyme DGAT1.
# human DGAT1 (NM012079.2) was cloned into the pFastBac vector, containing translation start, a FLAG-tag at the N-terminus as described in literature and a viral Kozak sequence (AAX) preceding the ATG to improve expression in insect cells. Expression was done as described in literature (Cases, S., Smith, S. J., Zheng, Y., Myers H. M., Lear, S. R., Sande, E., Novak, S., Collins, C., Welch, C. B., Lusis, A. J., Erickson, S. K. and Farese, R. V. (1998) Proc. Natl. Acad. Sci. USA 95, 13018-13023.) using SF9 cells.
# 72 h transfected SF9 cells were collected by centrifugation (13000 rpm-15 min-4° C.) and lysed in 2×500 ml lysisbuffer (0.1M Sucrose, 50 mM KCl, 40 mM KH2PO4, 30 mM EDTA pH 7.2. Cells were homogenized by cell disruptor. After centrifugation 1380 rpm-15 min-4° C. (SN discarded), pellet was resuspended in 500 ml lysisbuffer and total cell membranes collected by ultracentrifugation at 34000 rpm(100 000 g) for 60 min (4° C.). The collected membranes were resuspended in lysis buffer, divided in aliquots and stored with 10% glycerol at −80° C. until use.
# Add 1 ml dioleoyl-sn-glycerol (10 mg/ml) to 10 ml of L-α-phosphatidylcholine (1 mg/ml) and 10 ml of L-α-phosphatidyl-L-serine (1 mg/ml) in a thick glass recipient. Evaporate under nitrogen and put on ice for 15 minutes. Reconstitute in 10 ml Tris/HCl (10 mM, pH 7.4) by sonication on ice. The sonification process consists of sonification cycles of 10 seconds in the sonification bath followed by 10 seconds cool down on ice and repeating this sonification cycle till a homogeneous solution is obtained (takes about 15 minutes). The thus obtained micelles are stored at −20° C. till later use and contain DAG at a final concentration of 1.61 mM.
# c) Substrate mix (for 1 384 well plate=3840 μl) • 612 μl micelles stock (51 μM final) • 16.6 μl oleoylCoA 9.7 mM • 23 μl [^3H]-oleoylCoA (49 Ci/mmol, 500 μCi/ml) • 3188.4 μl Tris pH 7.4, 10 mM
# d) Enzyme mix (for 1 384 well plate=3520 μl) (5 μg/ml) • Add 11.73 μl of DGAT membrane stock (1500 μg/ml stock) to 3508 μl assay buffer.
# e) Stop mix (for 1 384 well plate=7.68 ml) (250 mM) • Add 384 μl of N-ethylmaleimide (5M) to 3.456 ml DMSO 100%, and further dilute 3.84 ml of said solution with 3.84 ml DMSO 10%.
# DGAT activity in membrane preparations was assayed in 50 mM Tris-HCl (pH 7.4), 150 mM MgCl2, 1 mM EDTA and 0.2% BSA, containing 50 μM DAG, 32 μg/ml PC/PS and 8.4 μM [^3H]-oleoylCoA (at a specific activity of 30 nCi/well) in a final volume of 50 μl in 384-well format using the red shifted Basic Image FlashPlate™ (Perkin Elmer Cat.No. SMP400).
# In detail, 10 μl enzyme mix and 10 μl substrate mix were added to 30 μl of assay buffer, optionally in the presence of 1 μl DMSO (blank and controls) or 1 μl of the compound to be tested. This reaction mixture was incubated for 120 minutes at 37° C. and the enzymatic reaction stopped by adding 20 μl of the stop mix. The plates were sealed and the vesicles allowed to settle overnight at room temperature. Plates were centrifuged for 5 minutes at 1500 rpm and measured in Leadseeker. […]
row,SMILES,pIC50
1,COc1cc(Cl)c(NC(=O)N2CCN(c3ccc(NC(=O)CNc4ccc(C)cc4C)cc3)CC2)c(OC)c1,7.72
2,CN(C)C(=O)CCC(=O)Nc1ccc(C2CCN(C(=O)Nc3c(Cl)cccc3Cl)CC2)cc1,5.40
3,O=C(NCc1cccs1)c1ccc(N2CCN(C(=O)Cc3c(Cl)cccc3Cl)CC2)cc1,6.57
4,O=C(NCc1ccc(F)cc1)c1ccc(N2CCN(C(=O)Cc3c(Cl)cccc3Cl)CC2)cc1,6.93
5,CC(CNC(=O)OC(C)(C)C)C(=O)Nc1ccc(C2CCN(C(=O)Nc3c(Cl)cccc3Cl)CC2)cc1 (stereo not shown),7.64
6,O=C(CCN(Cc1cccc(Cl)c1)S(=O)(=O)c1ccccc1[N+](=O)[O-])Nc1ccc(N2CCN(C(=O)Nc3c(Cl)cccc3Cl)CC2)cc1,6.72
7,O=C(NCc1ccccn1)c1ccc(N2CCN(C(=O)Cc3c(Cl)cccc3Cl)CC2)cc1,5.65
8,COCCNCC(=O)Nc1ccc(C2CCN(C(=O)Nc3c(Cl)cccc3Cl)CC2)cc1,6.08
9,COc1ccc(C(O)C(=O)N2CCN(c3ccc(NC(=O)CCCc4ccccc4)cc3)CC2)cc1 (stereo not shown),5.36
10,COc1ccc(CC(=O)Nc2ccc(N3CCN(C(=O)NCc4ccccc4Cl)CC3)cc2)cc1,5.39
11,COc1cccc(CNC(=O)c2ccc(N3CCN(C(=O)Cc4c(Cl)cccc4Cl)CC3)cc2)c1,7.37
12,CCN1CCN(Cc2cc(Cl)c(NC(=O)N3CCN(c4ccc(NC(=O)Cc5ccc(OC)cc5)cc4)CC3)c(Cl)c2)CC1,8.10
13,COCCNCC(=O)Nc1ccc(N2CCN(C(=O)Nc3c(Cl)cccc3Cl)CC2)cc1,5.49
14,COc1ccc(CC(=O)Nc2ccc(N3CCN(C(=O)C(=O)c4c(Cl)cccc4Cl)CC3)cc2)cc1,6.51
15,O=C(CCCC(=O)OCc1ccc(Cl)cc1)Nc1ccc(N2CCN(C(=O)Nc3c(Cl)cc(CN4CCCCC4)cc3Cl)CC2)cc1,8.31
16,O=C(CCCc1ccccc1)Nc1ccc(N2CCN(C(=O)C(O)c3ccc(Br)cc3F)CC2)cc1 (stereo not shown),6.62
17,COc1ccc(CNC(=O)c2ccc(N3CCN(C(=O)Cc4c(Cl)cccc4Cl)CC3)cc2)cc1,7.20
18,C#CCN(C)CC(=O)Nc1ccc(C2CCN(C(=O)Nc3c(Cl)cccc3Cl)CC2)cc1,6.25
19,"CNC(C)c1cc(Cl)c(NC(=O)N2CCN(c3ccc(NC(=O)CCCc4ccccc4)cc3)CC2)c(Cl)c1 (single isomer, unassigned) [293]",7.91
20,CC(C(=O)N1CCN(c2ccc(NC(=O)CCCc3ccccc3)cc2)CC1)c1ccc([N+](=O)[O-])cc1 (stereo not shown),5.12
21,CCN(CC)CCC(=O)Nc1ccc(N2CCN(C(=O)Nc3c(Cl)cccc3Cl)CC2)cc1,5.20
22,"CNC(C)c1cc(Cl)c(NC(=O)N2CCN(c3ccc(NC(=O)CCCc4ccccc4)cc3)CC2)c(Cl)c1 (single isomer, unassigned) [287]",8.00

# Now from value to compound:
row,pIC50,SMILES
1,5.33,O=C(CCCc1ccccc1)Nc1ccc(N2CCN(C(=O)C(O)c3ccc(Cl)cc3)CC2)cc1 (stereo not shown)
2,7.71,CC(CC(=O)Nc1ccc(C2CCN(C(=O)Nc3c(Cl)cccc3Cl)CC2)cc1)NC(=O)OC(C)(C)C (stereo not shown)
3,7.13,O=C(NCc1ccccc1Cl)c1ccc(N2CCN(C(=O)Cc3c(Cl)cccc3Cl)CC2)cc1
4,7.64,O=C(CCN(Cc1ccccc1)S(=O)(=O)c1ccccc1[N+](=O)[O-])Nc1ccc(N2CCN(C(=O)Nc3c(Cl)cccc3Cl)CC2)cc1
5,6.44,CC(=O)N(C)CC(=O)Nc1ccc(N2CCN(C(=O)Nc3c(Cl)cccc3Cl)CC2)cc1
6,6.88,CN(C)CCCNC(=O)c1cc(Cl)c(NC(=O)N2CCN(c3ccc(NC(=O)CCCc4ccccc4)cc3)CC2)c(Cl)c1
7,8.02,O=C(CCCc1ccccc1)Nc1ccc(N2CCN(C(=O)[C@@H](O)c3ccccc3Cl)CC2)cc1
8,7.01,O=C(CCCc1ccccc1)Nc1ccc(N2CCN(C(=O)[C@H](O)c3ccccc3Cl)CC2)cc1
9,7.82,O=C(CCc1ccccc1)Nc1ccc(N2CCN(C(=O)Nc3c(Cl)cccc3Cl)CC2)cc1
10,6.13,CCCN(C)CC(=O)Nc1ccc(C2CCN(C(=O)Nc3c(Cl)cccc3Cl)CC2)cc1
11,6.80,O=C(NCc1ccccc1)c1ccc(N2CCN(C(=O)Nc3c(Cl)cc(CN4CCCC4)cc3Cl)CC2)cc1
12,5.81,O=C(NCC1CCOCC1)c1ccc(N2CCN(C(=O)Cc3c(Cl)cccc3Cl)CC2)cc1
13,8.46,COc1ccc(CC(=O)Nc2ccc(N3CCN(C(=O)Nc4c(Cl)cc(CN5CCN(C(C)=O)CC5)cc4Cl)CC3)cc2)cc1
14,6.33,"O=C(CCCc1ccccc1)Nc1ccc(N2CCN(C(=O)C(O)c3c(Cl)cccc3Cl)CC2)cc1 (single isomer, unassigned) [334]"
15,6.88,O=C(NCc1ccc(Cl)cc1)c1ccc(N2CCN(C(=O)Cc3c(Cl)cccc3Cl)CC2)cc1
16,7.68,O=C(CCN(CC1CC1)S(=O)(=O)c1ccccc1[N+](=O)[O-])Nc1ccc(N2CCN(C(=O)Nc3c(Cl)cccc3Cl)CC2)cc1
17,7.20,O=C(NCc1cccc(Cl)c1)c1ccc(N2CCN(C(=O)Cc3c(Cl)cccc3Cl)CC2)cc1
18,7.34,CCOC(=O)CCC(=O)Nc1ccc(N2CCN(C(=O)Nc3c(Cl)cccc3Cl)CC2)cc1
19,5.75,Cc1cc([N+](=O)[O-])ccc1NC(=O)N1CCN(c2ccc(NC(=O)CCCc3ccccc3)cc2)CC1
20,6.38,CC(C)OCCCNC(=O)c1ccc(N2CCN(C(=O)Cc3c(Cl)cccc3Cl)CC2)cc1
21,6.50,COc1ccc(CNC(=O)c2ccc(N3CCN(C(=O)Cc4c(Cl)cc(C)nc4Cl)CC3)cc2)cc1
22,7.58,CN(CCC(=O)Nc1ccc(C2CCN(C(=O)Nc3c(Cl)cccc3Cl)CC2)cc1)C(=O)OC(C)(C)C
23,5.30,CC(=O)NCCC(=O)Nc1ccc(C2CCN(C(=O)Nc3c(Cl)cccc3Cl)CC2)cc1
24,6.86,"O=C(CCCc1ccccc1)Nc1ccc(N2CCN(C(=O)C(O)c3c(Cl)cccc3Cl)CC2)cc1 (single isomer, unassigned) [329]"
